Results taken from patent US20220313702A1, “OXATHIAZIN COMPOUNDS FOR INHIBITING GAPDH” (Geistlich Pharma AG, priority 2019, published 2022).

Test system: JL-1 cells
Assay: cell viability MTT assay, JL-1 mesothelioma cells
Settings: JL-1, 1.0 uM MMC, 24 h at 37° C.
Protocol: (§1) Cell viability was tested colorimetically using the MTT assay. Viable cells convert the yellow MTT dye to violet formazan (Sigma M5655).
as §1

mitomycin C
cytotoxicity, drug alone: inactive per se
